Assay results: patent US20100041873A1

Target: Human IL-21 receptor on Baf3/KZ134/huIL-21R cells (human) (UniProt Q9HBE5)
Experiment: cell-based or functional assay

- EC90, 24 hr STAT-Luciferase assay in Baf3/KZ134/huIL-21R cells: 6.41 nM
Substance: Recombinant murine IL-21 (from UniProt Q9ES17 18-146) (ligand)
